According to BindingDB's records for doi:10.1021/acs.biochem.6b00446 (Avanti Polar Lipids, 2016):

Target: T1, Fatty acid-binding protein, liver (Mus musculus, UniProt P12710)
T1 sequence (P12710 whole entry): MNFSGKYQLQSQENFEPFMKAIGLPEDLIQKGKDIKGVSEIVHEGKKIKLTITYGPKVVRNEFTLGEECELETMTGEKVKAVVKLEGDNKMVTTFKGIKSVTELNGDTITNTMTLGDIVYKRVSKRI
Assay: FABP1 Fluorescent Ligand Displacement Assay

With `CCCCC/C=C\C/C=C\C/C=C\C/C=C\CCCC(=O)NCCO` [Arachidonoyl ethanolamide] as the compound, how does the Ki read?
Its Ki is 111 nM.
